Results published in paper PMC4875962 (Clinical Pharmacokinetics, 2015).
Where “and” joins values, the source holds several entries; their conditions need not be identical. Equal entries are not always repeated. Where two headings read alike, the source gives them in different places.

Key:
[1] = single and multiple oral doses, healthy subjects; cited from earlier work
[2] = tested on: thrombin generation and platelet activation; conditions: cited from earlier work
[3] = tested on: PT, INR, aPTT, intrinsic FX activity, thrombin generation, anti-FXa; conditions: cited from earlier work
intrinsic FX activity = conditions: patients with AF, cited from earlier work
[4] = Severe impairment: CLCR <30 mL/min; cited from earlier work
[5] = tested on: plasma anti-FXa activity, PT, aPTT; conditions: single 60 or 180 mg dose, healthy subjects; data on file

Compound: CN1CCc2nc(C(=O)N[C@@H]3C[C@@H](C(=O)N(C)C)CC[C@@H]3NC(=O)C(=O)Nc3ccc(Cl)cn3)sc2C1 [edoxaban]
- time to peak plasma concentration (Cmax) [1]: 1 to 2 h and 1.0 to 2.0 h
- duration of anticoagulant effects [2]: 24 h
- inhibition of thrombin generation and platelet activation ([2]; single doses of 30, 60 and 120 mg): significant inhibition
- anticoagulant effects of edoxaban on coadministration of aspirin [3]: not affected
- effect on thrombin generation assay parameters vs either drug alone ([3]; edoxaban 60 mg and subcutaneous enoxaparin 1 mg/kg): increased effect
- duration of intrinsic FX activity suppression (intrinsic FX activity; 30 mg twice daily regimen): 18.8 h
- duration of intrinsic FX activity suppression (intrinsic FX activity; 60 mg once daily regimen): 13.7 h
- AUC∞ [4]: 857 ± 199 ng·h/mL
- relation of plasma edoxaban concentrations to anti-FXa activity [5]: linearly related
